From US20250032526A1, “COMPOSITION, METHOD FOR PREPARING SAME, AND USE THEREOF” (priority 2022, published 2025)

Test: Compatibility of raw material and auxiliary material (content measurement)
Type: physicochemical
Method: The mixture was allowed to stand at 60° C. high temperature condition (60° C.), high humidity condition (25° C., 92.5% RH), acceleration condition (40° C.±2° C., 75% RH±5%), and light condition (4500 1×±500 1×) for 10 days and 30 days, and then taken out to detect the content and the change of the related substance.

Question: Which “Content measurement result, 0 day” value (0 day) does the source give for `N#C[C@@]1(c2ccc3c(N)ncnn23)O[C@H](COC(=O)C2CCCCC2)[C@@H](O)[C@H]1O` [ATV014] here?
Answer: 101.8%

Question: And the “Content measurement result, 25° C./92.5% RH, open, 30 day” value (25° C./92.5% RH, open, 30 day)?
Answer: 99.8%

Question: And the “Content measurement result, 40° C./75% RH, open, 10 day” value (40° C./75% RH, open, 10 day)?
Answer: 102.2%

Question: What about the “Content measurement result, 40° C./75% RH, open, 30 day” value (40° C./75% RH, open, 30 day) of the same compound?
Answer: 101.0%

Question: And the “Content measurement result, Illumination, open, 10 day” value (Illumination, open (4500 lx ± 500 lx), 10 day)?
Answer: 100.9%
